# From publication PMC3157590 (Bioconjugate chemistry, 2011)
# Experiments:
# [1] = partition in equal volume mixture of 1-octanol and 25 mM phosphate buffer (pH = 7.4); radioactivity; mean ± SD
# [2] = canine model, 2 h p.i.; cited from earlier work
substance,measurement,setting,value
[^99mTc(HYNIC-CA-DMP757)(tricine)(TPPTS)] [DMP444],log P,[1],−4.02 ± 0.16
same,injected dose remaining in blood (slow blood clearance),[2],45 % of the injected dose
